Literature values, collected in patent US6358491B1, “Somatostatin analogs” (Berlex Laboratories, Inc., priority 1999, dated 2002).

Conditions: 24 hours post-injection, cited from earlier work

Substance: ^111In-DTPA-D-Phe^1-octreotide
- retention in human liver: about 3.2 % injected dose
- retention in kidney (human): about 3.7 % injected dose
- retention in spleen (human): about 3 % injected dose
